Test results taken from US20140194321A1 (CELLOMICS, INC., priority 2013, published 2014).

Tested on: U937 cells
Assay: High-content imaging skin sensitizing prediction assay: U937 cells treated 24 h with a range of compound concentrations, CD54 intensity per cell and cell number dose response curves qualified, decision matrix applied
Details: 24 hours compound treatment; for CD54/Cell Result: qualified dose response curve (increasing/flat/decreasing) of CD54 intensity per cell; for Cell Number Result: qualified dose response curve (increasing/flat/decreasing) of number of cells

Compound | CD54/Cell Result | CD54/Cell Result (listed as hexylcinnaldehyde) | Cell Number Result | Cell Number Result (listed as hexylcinnaldehyde)
CCCCCC/C(C=O)=C\c1ccccc1 [Hexylcinnaldehyde] | Increase | increasing | Increase | increasing
N#CCCC(Br)(C#N)CBr (stereo not shown) [2bromo-2bromomethylglutaronitrile] | – | – | Decrease | –
CC(C)O [Isopropanol] | – | – | Increase | –
OCC(O)CO [Glycerol] | – | – | Increase | –
